The record followed here is patent US10683267B1, “Antidiabetic compounds” (King Abdulaziz University, priority 2019, dated 2020).

Protein sequences, listed by entry. Tags and fused reporters are not part of them.
UniProt P27487, whole entry: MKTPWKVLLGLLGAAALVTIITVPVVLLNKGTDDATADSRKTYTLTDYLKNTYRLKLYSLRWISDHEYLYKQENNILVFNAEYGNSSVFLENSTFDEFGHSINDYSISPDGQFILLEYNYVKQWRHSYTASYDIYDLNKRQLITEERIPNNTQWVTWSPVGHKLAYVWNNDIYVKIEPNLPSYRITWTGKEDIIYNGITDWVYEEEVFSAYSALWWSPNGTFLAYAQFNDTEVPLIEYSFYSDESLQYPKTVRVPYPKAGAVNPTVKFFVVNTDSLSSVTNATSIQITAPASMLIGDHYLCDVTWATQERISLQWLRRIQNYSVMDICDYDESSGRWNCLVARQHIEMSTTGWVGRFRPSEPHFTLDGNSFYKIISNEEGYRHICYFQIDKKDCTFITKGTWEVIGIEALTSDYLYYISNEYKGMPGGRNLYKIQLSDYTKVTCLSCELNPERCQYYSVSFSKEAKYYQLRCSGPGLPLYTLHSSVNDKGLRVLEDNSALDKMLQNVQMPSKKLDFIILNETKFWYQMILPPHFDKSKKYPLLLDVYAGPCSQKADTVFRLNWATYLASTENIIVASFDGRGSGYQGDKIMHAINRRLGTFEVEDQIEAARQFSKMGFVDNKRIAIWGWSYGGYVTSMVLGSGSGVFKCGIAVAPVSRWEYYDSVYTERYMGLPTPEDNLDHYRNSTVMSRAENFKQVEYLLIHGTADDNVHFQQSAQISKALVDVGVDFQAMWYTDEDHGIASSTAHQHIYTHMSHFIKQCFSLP

Read-outs that look alike come from different tables or passages of the source.

One test addresses DPP-IV enzyme (Homo sapiens, UniProt P27487). The experiment in a line: In vitro DPP-IV inhibition assay (Biovision kit, fluorescence). The format is biochemical.
In test [1] the test system is diabetic mice. Kind of test: Oral glucose tolerance test (OGTT) after multiple doses (6 days) in diabetic mice. The format is in vivo. Conditions: Table 6, relative potency, B.G. = blood glucose.
The test system of test [2] is diabetic mice. Kind of test: Oral glucose tolerance test (OGTT) after single dose in diabetic mice. Conditions: Table 6, relative potency, B.G. = blood glucose. Format: in vivo.

For `O=C(CNC12CC3CC(CC(O)(C3)C1)C2)Nc1ccccc1`, the IC50 amounted to 5.88 nM against DPP-IV enzyme (Table 2, head prints no unit, nM per Table 6); 5.88 nM at DPP-IV enzyme (Table 6); 5.9 nM on DPP-IV enzyme (read-out: enzymatic inhibition value / inhibitory activity (IC50) as stated in text). Also, the “% Inhibition @ 100 nM” value on DPP-IV enzyme (compound at 100 nM) is listed as 79.97%. For the same compound, in the test on diabetic mice [1], the “R.P. to Vildagliptin (6 Days)” value is listed as “Increased B.G”. Further, in the test on diabetic mice [2], the “R.P. to Vildagliptin (Single Dose)” value is “Increased B.G”.
